This note sets out measurements from patent US20210122788A1.

By UniProt entry, the sequences of proteins in these tests, tags left out. Residues count along the entry.
UniProt O95971, 25-159: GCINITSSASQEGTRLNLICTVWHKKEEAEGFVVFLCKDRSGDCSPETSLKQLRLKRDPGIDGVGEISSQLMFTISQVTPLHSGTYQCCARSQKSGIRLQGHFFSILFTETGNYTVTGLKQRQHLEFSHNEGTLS

One may read the EC50 as the concentration needed to bring the measured effect to its halfway point.

Test [1] concerns the target human CD160 on cells (human) (UniProt O95971). The test is described as follows: FACS binding to EL4 cells. Conditions: Fc fusion.
For test [2], the target named is human BTLA, wild-type, on cells (human) (UniProt Q7Z6A9). In words: FACS binding to EL4 cells. The settings on record: Fc fusion. On the technique in general: In flow cytometry, cells or beads pass a laser one at a time.

A value given as a limit tells only on which side of the number the result lay.

Regarding human CMV UL144 Fc (Fiala strain), the EC50 in test [1] is greater than 200 µg/mL; in test [2], 0.66 µg/mL.
